{"sequences": {"note": "Sequences of proteins named here, by UniProt entry; tags and fusion partners are left off.", "UniProt P10415, whole entry": "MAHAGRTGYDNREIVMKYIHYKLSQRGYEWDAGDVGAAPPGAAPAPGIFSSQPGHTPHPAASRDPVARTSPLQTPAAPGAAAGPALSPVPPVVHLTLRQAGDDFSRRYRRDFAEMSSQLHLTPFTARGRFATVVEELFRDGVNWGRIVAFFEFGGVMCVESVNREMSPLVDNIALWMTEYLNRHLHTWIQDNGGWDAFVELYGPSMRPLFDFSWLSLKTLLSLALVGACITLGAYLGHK"}, "source": "PubChem BioAssay AID950", "about": "(NMMLSC, 2007)", "note": "The entries are a selection whose mix differs from that of the whole data set. The source made the active and inactive calls. Rule as the data show it: active = inhibition above about 40%; inconclusive = no clear call, values can overlap the other calls; inactive = below that."}
{"molecular_target": "Apoptosis regulator Bcl-2 (Homo sapiens) (UniProt P10415)", "assay": "inhibitors of Bim-Bcl-2 binding, primary screen, biochemical, multiplexed, human Bcl-2 family (AID 950);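 also: 0% = no compound wells with probe peptide and 100% = reference peptide inhibitor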", "settings": "Bead-based flow cytometry, Bim peptide-Bcl-2 binding; at 10 µM; hits give high values"}
{"smiles": "Cc1ccccc1NP(C)(=O)Nc1ccccc1C", "inhibition": "inactive: -4%"}
{"smiles": "CP(=O)(Nc1ccc2c(c1)OCCO2)Oc1ccccc1", "note": "(centres undefined)", "inhibition": "inactive: 9%"}
{"smiles": "CCOP(C)(=S)SCC(=O)NC(C)(CC)C(=O)O", "note": "(centres undefined)", "inhibition": "inactive: -14%"}
{"smiles": "O=[N+]([O-])c1cc([N+](=O)[O-])c(NCC2CCS(=O)(=O)C2)c([N+](=O)[O-])c1", "note": "(centres undefined)", "inhibition": "inactive: -2%"}
{"smiles": "CN(C)CCOC(=O)C(O)(c1ccccc1)C1CCCCC1", "note": "(centres undefined)", "inhibition": "inactive: -2%"}
{"smiles": "COc1ccc(NP(C)(=O)Oc2ccccc2OC)cc1", "note": "(centres undefined)", "inhibition": "inactive: 4%"}
{"smiles": "COc1ccc(OP(C)(=O)Nc2cccc(Br)c2)cc1", "note": "(centres undefined)", "inhibition": "inactive: -14%"}
{"smiles": "CP(=O)(Nc1ccccc1)Oc1ccc(F)cc1", "note": "(centres undefined)", "inhibition": "inactive: -2%"}
{"smiles": "CCN(CC)CCCOC(=O)C(O)(c1ccccc1)C1CCCCC1", "note": "(centres undefined)", "inhibition": "inactive: -21%"}
{"smiles": "CCOC(=O)c1ccc(NP(C)(=O)Oc2ccc(F)cc2)cc1", "note": "(centres undefined)", "inhibition": "inactive: 1%"}
{"smiles": "COc1ccc(OP(C)(=O)Nc2ccc(SC(F)(F)F)cc2)cc1", "note": "(centres undefined)", "inhibition": "inactive: 0%"}
{"smiles": "O=C(OCCN1CCN(CCOCc2ccccc2)CC1)C(O)(c1ccccc1)c1ccccc1", "inhibition": "inactive: -5%"}
{"smiles": "CP(=O)(Nc1ccccc1F)Oc1ccccc1", "note": "(centres undefined)", "inhibition": "inactive: -7%"}
{"smiles": "CC(C)c1ccc(OP(C)(=O)Nc2ccc(SC(F)(F)F)cc2)cc1", "note": "(centres undefined)", "inhibition": "inactive: -8%"}
{"smiles": "COc1ccccc1OP(C)(=O)Nc1ccc(C)cc1C", "note": "(centres undefined)", "inhibition": "inactive: -2%"}
{"smiles": "CP(=O)(Nc1ccccn1)Oc1ccccc1", "note": "(centres undefined)", "inhibition": "inactive: -7%"}
{"smiles": "CCc1ccc(OP(C)(=O)O)cc1", "inhibition": "inactive: 0%"}
{"smiles": "O=[N+]([O-])c1cc([N+](=O)[O-])c(Nc2ccccn2)c([N+](=O)[O-])c1", "inhibition": "inactive: -11%"}
{"smiles": "Cc1c(NP(C)(=O)Oc2ccc(C(C)C)cc2)c(=O)n(-c2ccccc2)n1C", "note": "(centres undefined)", "inhibition": "inactive: -3%"}
{"smiles": "COc1ccc(OP(C)(=O)Nc2ccccn2)cc1", "note": "(centres undefined)", "inhibition": "inactive: -1%"}
{"smiles": "CN(C)CCOC(=O)C(O)(c1ccccc1)C1CCCC1", "note": "(centres undefined)", "inhibition": "inactive: -1%"}
{"smiles": "CP(=O)(OCCOc1ccccc1)OCCOc1ccccc1", "inhibition": "inactive: -4%"}
{"smiles": "CP(=O)(Nc1ccc(Cl)cc1Cl)Oc1ccccc1", "note": "(centres undefined)", "inhibition": "inactive: -4%"}
{"smiles": "Cc1nc2ccc3ccccc3c2o1.O=[N+]([O-])c1cc([N+](=O)[O-])c(O)c([N+](=O)[O-])c1", "inhibition": "inactive: -4%"}
{"smiles": "COc1ccccc1OP(C)(=O)Nc1ccc(C)c(C)c1", "note": "(centres undefined)", "inhibition": "inactive: -7%"}
{"smiles": "COc1ccc(OP(C)(=O)Nc2ccccc2Br)cc1", "note": "(centres undefined)", "inhibition": "inactive: -10%"}
{"smiles": "Cc1cc(C)cc(OP(C)(=O)Nc2cccc(C(F)(F)F)c2)c1", "note": "(centres undefined)", "inhibition": "inactive: -1%"}
{"smiles": "CCOC(=O)c1ccc(NP(C)(=O)Oc2ccc(Cl)cc2)cc1", "note": "(centres undefined)", "inhibition": "inactive: -2%"}
{"smiles": "CP(=O)(OC12CC3CC(CC(C3)C1)C2)OC12CC3CC(CC(C3)C1)C2", "inhibition": "inactive: -13%"}
{"smiles": "CN(C)C(=O)c1c([N+](=O)[O-])cc([N+](=O)[O-])cc1[N+](=O)[O-]", "inhibition": "inactive: -2%"}
{"smiles": "CC(C)(C)c1ccc(OP(C)(=O)O)cc1", "inhibition": "inactive: 1%"}
{"smiles": "COc1ccccc1OP(C)(=O)Nc1ccccc1Br", "note": "(centres undefined)", "inhibition": "inactive: -4%"}
{"smiles": "CP(=O)(Nc1ccc(Cl)cc1)Oc1ccc(F)cc1", "note": "(centres undefined)", "inhibition": "inactive: -7%"}
{"smiles": "CCc1ccc(OP(C)(=O)Nc2cccnc2)cc1", "note": "(centres undefined)", "inhibition": "inactive: 0%"}
{"smiles": "CP(=O)(Oc1ccccc1)N1CCOC1=O", "note": "(centres undefined)", "inhibition": "inactive: -5%"}
{"smiles": "COc1ccc(OP(C)(=O)Nc2ccc(Br)cc2)cc1", "note": "(centres undefined)", "inhibition": "inactive: -4%"}
{"smiles": "CCN(CC)CC(O)COC(=O)C(O)(c1ccccc1)C1CCCCC1", "note": "(centres undefined)", "inhibition": "inactive: -2%"}
{"smiles": "CP(=O)(Nc1ccccn1)Oc1ccc(Cl)cc1", "note": "(centres undefined)", "inhibition": "inactive: -2%"}
{"smiles": "CCOC(=O)c1ccc(NP(C)(=O)Oc2ccc(OC)cc2)cc1", "note": "(centres undefined)", "inhibition": "inactive: -8%"}
{"smiles": "CCOP(C)(=S)SCC(=O)NC(C)C(=O)O", "note": "(centres undefined)", "inhibition": "inactive: 5%"}
{"smiles": "Cc1cc(C)cc(OP(C)(=O)Nc2ccc(SC(F)(F)F)cc2)c1", "note": "(centres undefined)", "inhibition": "inactive: -6%"}
{"smiles": "CP(=O)(NC(=O)Nc1ccccc1)Oc1ccccc1", "note": "(centres undefined)", "inhibition": "inactive: -6%"}
{"smiles": "CP(=O)(Oc1ccccc1)OC(c1ccccc1)C(F)(F)F", "note": "(centres undefined)", "inhibition": "inactive: -1%"}
{"smiles": "Cc1cccc(C)c1OP(C)(=O)Nc1ccc(SC(F)(F)F)cc1", "note": "(centres undefined)", "inhibition": "inactive: 6%"}
{"smiles": "CP(=O)(Nc1ccccc1Br)Oc1ccccc1", "note": "(centres undefined)", "inhibition": "inactive: -3%"}
{"smiles": "COc1ccccc1OP(C)(=O)Nc1ccccc1", "note": "(centres undefined)", "inhibition": "inactive: -5%"}
{"smiles": "CP(=S)(Nn1cnnc1)Oc1ccccc1", "note": "(centres undefined)", "inhibition": "inactive: -4%"}
{"smiles": "Cc1cc(C)cc(OP(C)(N)=O)c1", "note": "(centres undefined)", "inhibition": "inactive: -2%"}
{"smiles": "COc1ccc(OP(C)(=O)Nc2cccc(F)c2)cc1", "note": "(centres undefined)", "inhibition": "inactive: 3%"}
{"smiles": "COc1ccccc1OP(C)(=O)Nc1cc(Cl)ccc1C", "note": "(centres undefined)", "inhibition": "inactive: -2%"}
{"smiles": "Cc1ccc(NP(C)(=O)Oc2ccccc2)c(C)c1", "note": "(centres undefined)", "inhibition": "inactive: -4%"}
{"smiles": "COc1ccccc1OP(C)(=O)Nc1ccc(C)cc1", "note": "(centres undefined)", "inhibition": "inactive: 6%"}
{"smiles": "CCOC(=O)c1ccc(NP(C)(=O)Oc2ccccc2)cc1", "note": "(centres undefined)", "inhibition": "inactive: -1%"}
{"smiles": "O=[N+]([O-])c1ccc2c(c1)C=Nc1ccccc1O2", "inhibition": "inactive: -1%"}
{"smiles": "Cc1cccc(C)c1OP(C)(N)=O", "note": "(centres undefined)", "inhibition": "inactive: -4%"}
{"smiles": "CC(C)(C)c1ccc(OP(C)(=O)Nc2ccc(SC(F)(F)F)cc2)cc1", "note": "(centres undefined)", "inhibition": "inactive: 0%"}
{"smiles": "CCN(CC)CCCOC(=O)C(O)(c1ccccc1)c1ccccc1", "inhibition": "inactive: 0%"}
{"smiles": "Cc1ccc(C)c(NP(C)(=O)Oc2ccccc2)c1", "note": "(centres undefined)", "inhibition": "inactive: 0%"}
{"smiles": "CP(=O)(Nc1cccc(Br)c1)Oc1ccccc1", "note": "(centres undefined)", "inhibition": "inactive: 1%"}
{"smiles": "Cc1cc(C)cc(OP(C)(=O)Nc2ccccn2)c1", "note": "(centres undefined)", "inhibition": "inactive: -7%"}
{"smiles": "CCOC(=O)c1ccc(NP(C)(=O)Oc2cc(C)cc(C)c2)cc1", "note": "(centres undefined)", "inhibition": "inactive: 0%"}
{"smiles": "Cc1cc(C)cc(OP(C)(=O)Nc2ccc(C)cc2C)c1", "note": "(centres undefined)", "inhibition": "inactive: -5%"}
{"smiles": "CC1=NCCc2c1[nH]c1ccccc21.O=[N+]([O-])c1cc([N+](=O)[O-])c(O)c([N+](=O)[O-])c1", "inhibition": "inactive: 0%"}
{"smiles": "CP(=O)(Nc1ccc(SC(F)(F)F)cc1)Oc1ccccc1", "note": "(centres undefined)", "inhibition": "inactive: -2%"}
{"smiles": "CCCOc1ccc(NP(C)(=O)Oc2ccc(Cl)cc2)cc1", "note": "(centres undefined)", "inhibition": "inactive: 0%"}
{"smiles": "COc1ccccc1OP(C)(=O)Nc1c(C)cccc1C", "note": "(centres undefined)", "inhibition": "inactive: 0%"}
{"smiles": "CN1CCCCC1COC(=O)C1(O)c2ccccc2CCc2ccccc21", "note": "(centres undefined)", "inhibition": "inactive: -8%"}
{"smiles": "Cc1nc2ccc3ccccc3c2s1.O=[N+]([O-])c1cc([N+](=O)[O-])c(O)c([N+](=O)[O-])c1", "inhibition": "inactive: -8%"}
{"smiles": "O=[N+]([O-])c1cc([N+](=O)[O-])c(-n2nnc3ccccc32)c([N+](=O)[O-])c1", "inhibition": "inactive: 2%"}
